# Values quoted from earlier work as cited in US10960008B2, “Methods for treating PTEN deficient epithelial cancers using a combination of anti-PI3KBETA and anti-immune checkpoint agents” (Dana-Farber Cancer Institute, Inc., priority 2016, dated 2021).
# The chains behind the UniProt entries cited, without tags or fusion partners. Where a name states a change or a piece, a line headed by the entry shows the natural chain unless it says otherwise.
# UniProt O00329: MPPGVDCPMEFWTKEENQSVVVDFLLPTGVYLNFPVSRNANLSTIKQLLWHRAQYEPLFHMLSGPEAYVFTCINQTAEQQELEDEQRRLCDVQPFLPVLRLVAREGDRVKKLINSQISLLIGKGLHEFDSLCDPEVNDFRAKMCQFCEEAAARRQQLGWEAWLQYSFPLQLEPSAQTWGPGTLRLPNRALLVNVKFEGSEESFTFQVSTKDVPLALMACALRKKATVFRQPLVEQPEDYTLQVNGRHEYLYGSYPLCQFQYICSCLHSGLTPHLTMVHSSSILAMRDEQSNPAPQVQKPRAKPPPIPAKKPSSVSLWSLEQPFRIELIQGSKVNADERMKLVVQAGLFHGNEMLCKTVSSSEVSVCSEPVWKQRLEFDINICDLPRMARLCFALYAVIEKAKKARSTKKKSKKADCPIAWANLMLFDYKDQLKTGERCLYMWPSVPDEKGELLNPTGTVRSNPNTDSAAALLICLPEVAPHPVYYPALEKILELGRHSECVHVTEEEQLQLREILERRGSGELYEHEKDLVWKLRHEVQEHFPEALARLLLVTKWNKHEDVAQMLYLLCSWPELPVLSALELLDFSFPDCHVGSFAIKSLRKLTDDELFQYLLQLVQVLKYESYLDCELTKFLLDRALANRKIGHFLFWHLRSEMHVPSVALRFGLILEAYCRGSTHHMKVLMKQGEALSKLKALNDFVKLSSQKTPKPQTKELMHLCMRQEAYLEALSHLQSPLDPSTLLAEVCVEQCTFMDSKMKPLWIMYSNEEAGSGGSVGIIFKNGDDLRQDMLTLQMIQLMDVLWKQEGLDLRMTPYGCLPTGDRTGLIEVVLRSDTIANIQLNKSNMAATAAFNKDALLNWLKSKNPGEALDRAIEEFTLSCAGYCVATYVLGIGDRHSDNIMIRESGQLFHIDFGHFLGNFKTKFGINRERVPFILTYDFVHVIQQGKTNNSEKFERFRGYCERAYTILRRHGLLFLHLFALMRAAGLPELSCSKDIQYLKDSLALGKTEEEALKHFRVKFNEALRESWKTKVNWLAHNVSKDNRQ
# Molecular target: PI3K delta (Homo sapiens, UniProt O00329)
# Settings: read-out: IC50 PI3K delta; adapted from selleckchem.com; cited from earlier work
compound,measurement,value
Cc1nc(-c2cn3c(n2)-c2ccc(-c4cnn(C(C)(C)C(N)=O)c4)cc2OCC3)n(C(C)C)n1,pIC50,9.92

# pIC50: −log10 of the molar value.
